Data on three compounds can be found in ChEMBL document CHEMBL2163313, “Shape-based reprofiling of FDA-approved drugs for the H₁ histamine receptor” (J Med Chem, 2012).

Protein sequences, listed by entry. Tags and fused reporters are not part of them.
UniProt P31390, whole entry: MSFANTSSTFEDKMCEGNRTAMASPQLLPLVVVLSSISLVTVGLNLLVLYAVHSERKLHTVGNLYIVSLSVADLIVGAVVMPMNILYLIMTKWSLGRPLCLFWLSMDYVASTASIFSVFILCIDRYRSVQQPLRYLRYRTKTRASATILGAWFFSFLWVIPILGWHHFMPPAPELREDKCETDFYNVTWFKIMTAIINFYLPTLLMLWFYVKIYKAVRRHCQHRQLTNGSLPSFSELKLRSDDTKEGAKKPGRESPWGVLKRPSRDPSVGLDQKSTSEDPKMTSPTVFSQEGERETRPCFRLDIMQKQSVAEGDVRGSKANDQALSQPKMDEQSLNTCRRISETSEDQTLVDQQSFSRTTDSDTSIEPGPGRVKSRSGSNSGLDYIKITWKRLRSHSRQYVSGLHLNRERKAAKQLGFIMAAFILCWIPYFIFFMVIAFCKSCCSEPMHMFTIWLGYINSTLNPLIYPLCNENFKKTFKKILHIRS

This assay has as its target Histamine H1 receptor (Rattus norvegicus, UniProt P31390). In kind it is cell membranes, Sprague-Dawley, Brain, Membrane.
The term IC50 denotes the point on the concentration scale where inhibition reaches its midpoint. With `Cc1ccccc1C(OCCN(C)C)c1ccccc1` (stereo not drawn) [ORPHENADRINE], the IC50 is 162 nM.

Turning to `CN(C)CCCN1c2ccccc2Sc2ccccc21` [PROMAZINE], the IC50 was 1260 nM. For the compound `COc1ccc(CN(CCN(C)C)c2ccccn2)cc1` [PYRILAMINE], inhibition was half-maximal at 5.75 nM (IC50).
